The numbers were not newly measured in publication PMC11984388, “A brain-accessible peptide modulates stroke inflammatory response and neurotoxicity by targeting BDNF-receptor TrkB-T1 specific interactome” (Theranostics, 2025), which cites them from elsewhere.

The conditions of the data set: phase 3 clinical trial for acute ischemic stroke; cited from earlier work.

With nerinetide, the Plasma half-life result is on record as “below 20 min”.
